The source made the active and inactive calls.
Columns and labels:
[1] = target: T1, Thyroid hormone receptor beta (Homo sapiens) (UniProt P10828); experiment: Antagonist activity at NR1A2 (unknown origin) at 1 uM
T1 sequence (whole entry): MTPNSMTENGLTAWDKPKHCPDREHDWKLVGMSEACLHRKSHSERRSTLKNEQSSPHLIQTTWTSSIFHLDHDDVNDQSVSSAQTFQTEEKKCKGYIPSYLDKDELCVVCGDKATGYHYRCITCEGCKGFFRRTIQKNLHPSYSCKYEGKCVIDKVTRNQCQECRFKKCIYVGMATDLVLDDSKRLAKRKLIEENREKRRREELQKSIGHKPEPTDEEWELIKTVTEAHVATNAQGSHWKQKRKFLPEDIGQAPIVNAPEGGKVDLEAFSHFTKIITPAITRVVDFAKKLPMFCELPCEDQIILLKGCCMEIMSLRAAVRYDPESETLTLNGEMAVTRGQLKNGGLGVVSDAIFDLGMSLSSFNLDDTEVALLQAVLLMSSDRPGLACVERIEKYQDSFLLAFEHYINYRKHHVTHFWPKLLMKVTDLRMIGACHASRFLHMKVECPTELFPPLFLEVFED

The chains behind the UniProt entries cited, without tags or fusion partners. Where a name states a change or a piece, a line headed by the entry shows the natural chain unless it says otherwise.
UniProt P22736, whole entry: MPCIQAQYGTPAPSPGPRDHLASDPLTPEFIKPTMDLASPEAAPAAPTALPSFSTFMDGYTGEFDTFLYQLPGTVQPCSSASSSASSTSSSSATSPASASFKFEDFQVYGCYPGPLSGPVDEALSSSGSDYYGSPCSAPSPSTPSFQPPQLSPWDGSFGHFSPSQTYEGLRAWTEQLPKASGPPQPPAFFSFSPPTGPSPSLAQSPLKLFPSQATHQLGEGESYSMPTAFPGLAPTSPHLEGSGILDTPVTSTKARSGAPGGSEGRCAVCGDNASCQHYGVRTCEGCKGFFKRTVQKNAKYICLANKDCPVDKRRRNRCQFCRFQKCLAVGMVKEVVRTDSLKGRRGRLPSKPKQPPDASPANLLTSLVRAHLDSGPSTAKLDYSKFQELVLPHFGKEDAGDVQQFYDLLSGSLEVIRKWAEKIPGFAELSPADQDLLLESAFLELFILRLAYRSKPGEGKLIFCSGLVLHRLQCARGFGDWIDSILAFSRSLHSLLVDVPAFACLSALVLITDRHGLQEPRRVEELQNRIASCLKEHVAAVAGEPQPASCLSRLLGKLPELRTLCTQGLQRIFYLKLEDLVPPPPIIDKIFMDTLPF
UniProt P10826, whole entry: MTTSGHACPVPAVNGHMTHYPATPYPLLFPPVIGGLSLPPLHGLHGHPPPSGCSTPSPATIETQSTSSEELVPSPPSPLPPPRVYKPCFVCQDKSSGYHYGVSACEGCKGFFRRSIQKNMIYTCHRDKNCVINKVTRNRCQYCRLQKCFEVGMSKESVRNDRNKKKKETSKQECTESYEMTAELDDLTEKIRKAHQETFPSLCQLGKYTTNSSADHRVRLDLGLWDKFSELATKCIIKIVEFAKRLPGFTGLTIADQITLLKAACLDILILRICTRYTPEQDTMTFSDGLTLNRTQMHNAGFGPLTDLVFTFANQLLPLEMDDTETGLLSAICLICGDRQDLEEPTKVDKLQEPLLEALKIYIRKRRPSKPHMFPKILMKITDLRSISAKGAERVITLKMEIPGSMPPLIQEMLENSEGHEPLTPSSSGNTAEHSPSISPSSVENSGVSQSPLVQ
UniProt P51449: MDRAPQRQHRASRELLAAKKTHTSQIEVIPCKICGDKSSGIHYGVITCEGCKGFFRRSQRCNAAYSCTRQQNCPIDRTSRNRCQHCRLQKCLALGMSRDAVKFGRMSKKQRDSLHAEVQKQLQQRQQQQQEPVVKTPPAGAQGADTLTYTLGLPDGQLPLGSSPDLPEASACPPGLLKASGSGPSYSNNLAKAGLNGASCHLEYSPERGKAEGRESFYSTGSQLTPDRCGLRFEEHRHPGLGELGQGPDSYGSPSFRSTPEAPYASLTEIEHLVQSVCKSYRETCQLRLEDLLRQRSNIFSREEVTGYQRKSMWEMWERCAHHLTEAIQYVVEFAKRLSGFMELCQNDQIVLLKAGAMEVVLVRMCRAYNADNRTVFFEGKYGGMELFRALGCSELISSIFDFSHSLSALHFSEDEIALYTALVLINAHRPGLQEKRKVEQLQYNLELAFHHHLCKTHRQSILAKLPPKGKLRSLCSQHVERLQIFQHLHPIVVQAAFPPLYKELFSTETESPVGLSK
UniProt P55055, whole entry: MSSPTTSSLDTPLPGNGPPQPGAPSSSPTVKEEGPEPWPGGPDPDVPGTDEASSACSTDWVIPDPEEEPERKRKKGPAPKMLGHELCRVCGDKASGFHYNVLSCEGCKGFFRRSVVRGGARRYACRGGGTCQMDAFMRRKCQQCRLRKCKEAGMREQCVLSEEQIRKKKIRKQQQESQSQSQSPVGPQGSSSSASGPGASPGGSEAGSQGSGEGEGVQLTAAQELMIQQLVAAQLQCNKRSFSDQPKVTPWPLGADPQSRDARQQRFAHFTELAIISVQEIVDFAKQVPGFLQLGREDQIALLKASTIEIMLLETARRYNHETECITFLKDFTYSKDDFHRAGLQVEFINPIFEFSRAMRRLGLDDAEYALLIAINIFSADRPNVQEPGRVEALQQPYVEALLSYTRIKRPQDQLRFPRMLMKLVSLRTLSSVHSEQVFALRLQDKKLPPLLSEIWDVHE
UniProt P10276, whole entry: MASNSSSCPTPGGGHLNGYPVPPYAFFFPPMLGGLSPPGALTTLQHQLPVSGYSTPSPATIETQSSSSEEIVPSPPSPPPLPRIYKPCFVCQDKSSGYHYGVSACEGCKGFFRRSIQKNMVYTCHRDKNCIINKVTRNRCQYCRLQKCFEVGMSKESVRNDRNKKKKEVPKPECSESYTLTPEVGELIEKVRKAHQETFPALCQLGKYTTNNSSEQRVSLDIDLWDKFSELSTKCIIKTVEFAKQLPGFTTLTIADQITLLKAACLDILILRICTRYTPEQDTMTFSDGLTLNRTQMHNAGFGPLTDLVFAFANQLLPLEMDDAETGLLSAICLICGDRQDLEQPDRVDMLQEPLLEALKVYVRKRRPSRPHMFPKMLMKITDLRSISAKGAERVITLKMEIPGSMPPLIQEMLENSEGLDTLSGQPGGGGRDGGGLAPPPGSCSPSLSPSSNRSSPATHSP

[2] = target: Nuclear receptor subfamily 4immunitygroup A member 1 (Homo sapiens) (UniProt P22736); experiment: Inverse agonist activity at NR4A1 (unknown origin) at 1 uM
[3] = target: T1, Thyroid hormone receptor beta (Homo sapiens); experiment: Inverse agonist activity at NR1A2 (unknown origin) at 1 uM
[4] = target: T2, Nuclear receptor subfamily 1 group D member 1 (Homo sapiens) (UniProt P20393); experiment: Antagonist activity at NR1D1 (unknown origin) at 1 uM
T2 sequence (whole entry): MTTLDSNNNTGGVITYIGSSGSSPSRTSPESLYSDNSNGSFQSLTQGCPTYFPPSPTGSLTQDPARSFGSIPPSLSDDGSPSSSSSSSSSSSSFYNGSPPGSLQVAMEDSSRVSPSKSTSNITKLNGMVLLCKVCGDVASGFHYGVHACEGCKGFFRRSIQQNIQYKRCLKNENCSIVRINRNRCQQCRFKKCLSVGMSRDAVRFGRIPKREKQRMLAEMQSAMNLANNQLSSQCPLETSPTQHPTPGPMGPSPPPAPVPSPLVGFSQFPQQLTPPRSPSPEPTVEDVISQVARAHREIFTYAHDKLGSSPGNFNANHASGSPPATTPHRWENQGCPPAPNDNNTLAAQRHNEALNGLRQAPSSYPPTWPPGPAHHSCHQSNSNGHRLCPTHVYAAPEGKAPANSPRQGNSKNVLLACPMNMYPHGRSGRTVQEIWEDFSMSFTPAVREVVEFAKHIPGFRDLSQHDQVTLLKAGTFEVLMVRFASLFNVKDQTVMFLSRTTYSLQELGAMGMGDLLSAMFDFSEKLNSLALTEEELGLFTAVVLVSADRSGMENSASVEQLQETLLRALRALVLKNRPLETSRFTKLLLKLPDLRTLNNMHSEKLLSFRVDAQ

[5] = target: Retinoic acid receptor beta (Homo sapiens) (UniProt P10826); experiment: Antagonist activity at NR1B2 (unknown origin) at 1 uM
[6] = target: Nuclear receptor ROR-gamma (Homo sapiens) (UniProt P51449); experiment: Agonist activity at NR1F3 (unknown origin) at 1 uM
[7] = target: Oxysterols receptor LXR-beta (Homo sapiens) (UniProt P55055); experiment: Agonist activity at NR1H2 (unknown origin) at 1 uM
[8] = target: Nuclear receptor ROR-gamma (Homo sapiens) (UniProt P51449); experiment: Antagonist activity at NR1F3 (unknown origin) at 1 uM
[9] = target: T3, Vitamin D3 receptor (Homo sapiens) (UniProt P11473); experiment: Inverse agonist activity at NR1I1 (unknown origin) at 1 uM
T3 sequence (whole entry): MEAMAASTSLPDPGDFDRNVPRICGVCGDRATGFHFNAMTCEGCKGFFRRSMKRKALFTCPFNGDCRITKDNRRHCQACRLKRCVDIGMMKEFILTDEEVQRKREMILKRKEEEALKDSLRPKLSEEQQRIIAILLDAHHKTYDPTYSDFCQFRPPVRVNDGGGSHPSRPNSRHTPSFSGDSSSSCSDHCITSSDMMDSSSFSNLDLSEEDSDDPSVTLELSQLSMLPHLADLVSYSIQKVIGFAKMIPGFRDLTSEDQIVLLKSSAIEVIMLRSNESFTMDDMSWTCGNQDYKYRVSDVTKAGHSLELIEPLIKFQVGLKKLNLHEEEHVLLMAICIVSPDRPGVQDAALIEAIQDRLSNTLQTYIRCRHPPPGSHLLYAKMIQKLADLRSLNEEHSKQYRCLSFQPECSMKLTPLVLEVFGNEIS

[10] = target: T4, Nuclear receptor ROR-beta (Homo sapiens) (UniProt Q92753); experiment: Antagonist activity at NR1F2 (unknown origin) at 1 uM
T4 sequence (whole entry): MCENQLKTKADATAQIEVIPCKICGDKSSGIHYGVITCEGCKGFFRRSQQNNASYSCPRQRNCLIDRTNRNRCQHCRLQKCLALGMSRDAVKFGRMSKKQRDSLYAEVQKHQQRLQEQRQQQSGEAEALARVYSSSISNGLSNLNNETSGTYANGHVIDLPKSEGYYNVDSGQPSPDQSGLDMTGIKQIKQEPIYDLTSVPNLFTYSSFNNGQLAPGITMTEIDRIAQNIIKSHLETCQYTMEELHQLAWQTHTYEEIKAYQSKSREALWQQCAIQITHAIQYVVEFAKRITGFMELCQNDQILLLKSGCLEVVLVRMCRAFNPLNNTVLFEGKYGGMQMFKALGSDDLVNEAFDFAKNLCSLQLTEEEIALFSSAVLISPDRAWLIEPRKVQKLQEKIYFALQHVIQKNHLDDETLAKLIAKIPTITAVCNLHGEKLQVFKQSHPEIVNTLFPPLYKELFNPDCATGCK

[11] = target: T3, Vitamin D3 receptor (Homo sapiens); experiment: Antagonist activity at NR1I1 (unknown origin) at 1 uM
[12] = target: Retinoic acid receptor alpha (Homo sapiens) (UniProt P10276); experiment: Inverse agonist activity at NR1B1 (unknown origin) at 1 uM
[13] = target: T5, Hepatocyte nuclear factor 4-alpha (Homo sapiens) (UniProt P41235); experiment: Inverse agonist activity at NR2A1 (unknown origin) at 1 uM
T5 sequence (whole entry): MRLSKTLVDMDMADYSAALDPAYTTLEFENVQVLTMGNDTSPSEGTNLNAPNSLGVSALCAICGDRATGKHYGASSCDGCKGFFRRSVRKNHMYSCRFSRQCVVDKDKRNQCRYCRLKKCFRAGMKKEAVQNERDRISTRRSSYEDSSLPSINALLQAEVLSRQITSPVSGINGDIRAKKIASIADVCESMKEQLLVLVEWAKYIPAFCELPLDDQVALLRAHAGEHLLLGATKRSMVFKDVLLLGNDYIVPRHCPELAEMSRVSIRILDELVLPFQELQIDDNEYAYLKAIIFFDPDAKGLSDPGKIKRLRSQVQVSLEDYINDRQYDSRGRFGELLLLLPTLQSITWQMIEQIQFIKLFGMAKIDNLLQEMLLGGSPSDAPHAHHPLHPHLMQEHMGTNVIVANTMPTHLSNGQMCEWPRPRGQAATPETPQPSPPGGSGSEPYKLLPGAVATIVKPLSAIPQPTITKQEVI

Measured: Activity

O=C(O)[C@@H]1C[C@H]1c1nc(-c2ccccc2)c(-c2cc(C(F)(F)F)cc(C(F)(F)F)c2)o1 (racemic)
inactive: all assays above
